Counter-ions that a name gives are not always drawn.
System: 5-HT
Assay: Serum 5-HT level, BEL study
Format: in vivo
Conditions: 20 mg/kg/d gavage, CORT-induced mice
Procedure: Behavioral experiments were conducted once a week, and the serum 5-HT and CORT levels of mice were recorded.

With `CNCCC(Oc1ccc(C(F)(F)F)cc1)c1ccccc1` (stereo not shown) [Flu, fluoxetine hydrochloride, reference compound] the “Serum 5-HT” value was 142.08 ± 11.12 ng/mL.
